Values quoted from earlier work as cited in article PMC10483858 (Molecular Cancer, 2023).

Molecular target: PD-L1
Design: method as in PMID 32630327
Details: read-out: KD of the PD-1/PD-L1 interaction; ref [10]; cited from earlier work

PD-1: immune checkpoint molecule programmed cell death 1, binding partner of PD-L1
Kd: ~8 µM
